Measured values taken from patent US20020143062A1, “Method to incorporate N-(4-hydroxyphenyl) retinamide in liposomes” (Board of Regents, The University of Texas System, priority 2000, published 2002).

Key:
Experiment in all cases: NO production, nitrite (Table 10)
Type in all cases: cell-based
Details in all cases: 4HPR 0 μM, Herceptin +
[1] = tested on: SK-Br-3
Text: (§1) Liposomal 4-HPR has been associated with the suppression of genes linked to ER-negative breast cancer such as the Her2/neu oncogene, and epidermal growth factor receptor (EGFR). Overexpression/amplification of the Her-2/neu oncogene has been associated with poor prognosis for breast cancer. Herceptin, is a biologic agent that targets the human epidermal growth factor receptor-2 (HER2), has been clinically proven in treating breast cancer. […] The data further indicate that by blocking or suppressing Her-2/neu expression in ER-negative breast cancer cells, induction of iNOS and it production of NO is increased thereby inducing growth inhibition and apoptosis in these cells.

[2] = tested on: BT-474
Text: as §1

[3] = tested on: MDA-MB-453
Text: as §1

“Herceptin: monoclonal antibody that attaches itself to Her-2/neu” was tested, and the “Nitrite (NO production)” value [1] was 35.5 ± 1.2 μM Nitrite /1 × 10^6 cells, the “Nitrite (NO production)” value [2] was 67.7 ± 0.3 μM Nitrite /1 × 10^6 cells and the “Nitrite (NO production)” value [3] was 28.5 ± 1.3 μM Nitrite /1 × 10^6 cells.
